What was measured:
[1] = molecular target: V1a (Homo sapiens, UniProt P37288); test: In-vitro receptor binding assay (3H-arginine-8-vasopressin), V1a; conditions: read-out: Receptor Binding V1a (IC50 in μM)
Method: (§1) (A) In-Vitro Binding Assay […] The reaction plates are allowed to sit at room temperature for one hour. The samples are filtered through Unifilter GF/C plates (presoaked in 0.3 polyethyleneimine). The plates are washed 5 times with cold physiological saline containing 0.05% Tween 20. After drying, the bottom of the filter plates are sealed and 0.025 ml of Microscint-20 is added to each filter. The top of the plate is sealed, and the plate is counted. Non-specific binding is determined by the addition of 1.25 μM […]-vasopressin in those wells. % Inh. is calculated as follows: […]

Protein sequences, listed by entry. Tags and fused reporters are not part of them.
UniProt P37288, whole entry: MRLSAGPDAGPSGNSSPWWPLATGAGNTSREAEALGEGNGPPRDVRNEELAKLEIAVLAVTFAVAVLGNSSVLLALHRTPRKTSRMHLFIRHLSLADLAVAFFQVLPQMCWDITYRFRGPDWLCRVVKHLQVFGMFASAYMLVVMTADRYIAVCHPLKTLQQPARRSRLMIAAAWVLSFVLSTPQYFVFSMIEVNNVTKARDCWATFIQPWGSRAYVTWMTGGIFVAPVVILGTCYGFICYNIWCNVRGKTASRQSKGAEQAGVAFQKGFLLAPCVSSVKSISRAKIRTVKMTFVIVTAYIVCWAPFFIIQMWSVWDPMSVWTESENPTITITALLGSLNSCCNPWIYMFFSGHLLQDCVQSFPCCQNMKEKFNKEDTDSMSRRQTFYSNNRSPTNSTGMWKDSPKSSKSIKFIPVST
UniProt P30518, whole entry: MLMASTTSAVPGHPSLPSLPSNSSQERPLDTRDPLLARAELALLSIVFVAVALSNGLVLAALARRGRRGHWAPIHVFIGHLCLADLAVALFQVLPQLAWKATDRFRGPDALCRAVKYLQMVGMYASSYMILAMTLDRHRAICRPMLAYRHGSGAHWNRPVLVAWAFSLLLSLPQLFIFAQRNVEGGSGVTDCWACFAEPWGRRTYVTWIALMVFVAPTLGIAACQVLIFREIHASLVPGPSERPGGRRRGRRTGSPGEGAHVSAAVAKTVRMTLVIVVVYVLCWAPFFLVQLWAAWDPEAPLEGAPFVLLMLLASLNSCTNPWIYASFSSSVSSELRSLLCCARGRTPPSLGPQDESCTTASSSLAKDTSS

[2] = molecular target: human V2 receptor (Homo sapiens, UniProt P30518); test: In-vitro receptor binding assay (3H-arginine-8-vasopressin), V2; conditions: read-out: Receptor Binding V2 (IC50 in μM)
Method: as §1

- IC50 [1]: 0.011 µM
- IC50 [2]: 0.062 µM
SMILES: COc1cc(NC(=O)c2cc(F)ccc2C)ccc1C(=O)N1CCC2(C=C(C(=O)NCCCN3CCCC3)CC2)Cc2ccccc21 (centres unmarked)

From patent US7691844B2, “Nonpeptide substituted spirobenzoazepines as vasopressin antagonists” (Ortho-McNeil Pharmaceutical, Inc., priority 2000, dated 2010)
